In this assay the test system is U937 human histiocytic lymphoma cells. The experiment in a line: U937 Mitotic Block Reversibility Assay. Type of assay: cell-based.

Consider `C=C1CC2CCC34CC5OC6C(OC7CCC(CC(=O)CC8C(CC9OC(CCC1O2)CC(C)C9=C)OC(C(O)CO)C8C)OC7C6O3)C5O4` (stereo not drawn) [Compound B2090], for which the “Complete Mitotic Block 0 hour” value worked out at 2 nM, the “Complete Mitotic Block 10 hour” value amounted to 10 nM and the “Reversibility Ratio” value is reported as 5.0.

(Values after patent US6365759B1, “Intermediate compounds for preparing macrocylcic analogs” (Eisai Co., Ltd., priority 1998, dated 2002).)
